# Test system: Ceriodaphnia dubia
# Settings: in vivo
substance,measurement,value
tributyl(methyl)ammonium dibutyl phosphate [[N4441][DBP]],Number of surviving Daphnia,10

# Source: patent US11760766B2, “Ionic liquids containing quaternary ammonium and phosphonium cations, and their use as environmentally friendly lubricant additives” (UT-Battelle, LLC, priority 2020, dated 2023)
